Patent US7960168B2, “Biologically active substance transfer sheet, cell culture kit constituted of cell culture plate and biologically active substance transfer sheet, producing method thereof and method for screening cell culture conditions utilizing the same” (Canon Kabushiki Kaisha, priority 2003, dated 2011)

How the values were obtained:
Type in all cases: cell-based
[1] = system: mouse skeletal muscle cell strain C2C12; assay: C2C12 culture on plate with immobilized b-FGF and IGF-I and BMP-2 transfer sheet, optical microscope (Example 5); details: C2C12, 96 hours, BMP-2 dissolved from transfer sheet
Procedure: The following method was employed for acting biologically active substances in combination on cells. As the biologically active substances, there were employed basic fibroblast cell growth factor (b-FGF), insulin-like growth factor (IGF-I) and bone morphogenetic protein (BMP-2).
First, bFGF and IGF-I were immobilized onto a polystyrene 96-well cell culture plate in the following manner.
On the cell culture plate coated with poly-L-lysine, a solution (1.5 mg/ml) of active dextran activated with tresyl chloride was added to bind the activated dextran to the plate. Then carbonate buffer solutions containing b-FGF and IGF-I respectively were prepared, applied to the microplate with various amounts. The microplate was left to stand for 12 hours at 4° C. to prepare a cell culture plate including areas where b-FGF and IGF-I were immobilized either singly or in combination with different concentrations, as well as control areas without immobilization.
A polystyrene sheet having projections corresponding the wells of the microplate was provided and sterilized. […]
Then the cells were treated with 10% formalin for 15 minutes and then with methanol for 15 minutes, and reacted with a fluorescent dye for 30 minutes for fluorescent staining of DNA. […] Thus the complex effects of three factors, namely immobilized bFGF, soluble IGF-I and BMP-2, to the cells were analyzed.

[2] = system: mouse skeletal muscle cell strain C2C12; assay: C2C12 culture with BMP-2, sustained-release IGF-I and timed FGF-2 addition, ALP staining (Example 3); details: without addition of FGF-2; BMP-2 plus sustained release IGF-I, 114 hours
Procedure: As the biologically active substances, there were employed bone morphogenetic protein (BMP-2), fibroblast cell growth factor (FGF-2), and insulin-like growth factor (IGF-I). The BMP-2 and FGF-2 were respectively prepared into 20 μg/ml solutions containing 5% glycerin. On the other hand, the 20 μg/ml solution of the insulin-like growth factor (IGF-I) contained 5% glycerin and 3% styrene-acrylic resin monoethanolamine salt (average molecular weight 8,000, acid value 250) for controlled release of IGF. Ink cartridges were washed with 70% ethanol, and were filled with the respective solutions of the biologically active substances.
Then, a plurality of transfer sheets each containing a single biologically active substance in four different concentrations were prepared by providing on a base of a polyolefin sheet the respective biologically active substance using an ink jet printer as in Example 1. Each polyolefin sheet was processed in advance to have minute holes at positions corresponding to the wells of a 96 well plate to allow gas exchange. A DMEM culture liquid containing FBS by 2% was put in wells of five 96-well transparent microplates. Then the transfer sheet carrying BMP-2 was placed on each of the 96-well transparent microplates to superimpose on the wells of the microplate. […]

[3] = system: mouse skeletal muscle cell strain C2C12; assay: C2C12 culture with sequential transfer sheets A and B, CK and ALP activities (Example 2); details: C2C12, areas containing BMP-2 only
Procedure: As the biologically active substances, fibroblast cell growth factor-2 (FGF-2), insulin-like growth factor-I (IGF-I), bone morphogenetic protein-2 (BMP-2) and transforming growth factor-β (TGF-β) were employed. Solutions of these biologically active substances were prepared and filled in ink cartridges as in Example 1.
Then, two polyolefin sheets (NOVIX-II® manufactured by Asahi Techno Glass) were coated with polyvinyl alcohol (Gosenol GM14L, manufactured by Nippon Gosei Kagaku) by using a bar coater to a dry film thickness of 5 μm, thereby preparing two sheet bases having a holding layer. Then, the sheets were sterilized with a sterilizing lamp and the biologically active substances were discharged onto them using an ink jet printer. Thus two transfer sheets were prepared, a transfer sheet A having FGF-2 and IGF-I in various combinations and concentrations in 12 areas, and a transfer sheet B having BMP-2 and TGF-β in various combinations and concentrations in 12 areas.
A DMEM culture liquid containing 2% FBS was put into wells of two 96-well transparent microplates 1 and 2. After the transfer sheets A and B were attached onto the microplates 1 and 2 respectively as in Example 1, the biologically active substances were dissolved by pushing each area carrying the biologically active substances from the back of the sheet with a rod (FIG. 5). […]

[4] = system: mouse skeletal muscle cell strain C2C12; assay: C2C12 culture with transfer sheet carrying b-FGF, IGF-I and BMP-2, microscope observation (Example 1); details: C2C12, 96 hours culture, area containing BMP-2
Procedure: The following method was employed for mixing one or more biologically active substances in combination into a cell culture liquid. Basic fibroblast cell growth factor (b-FGF), insulin-like growth factor (IGF-I) and bone morphogenetic protein (BMP-2) were used as the biologically active substance. b-FGF was dissolved in a physiological saline solution, IGF-I in 10 mM acetic acid, and BMP-2 in 4 mM hydrochloric acid to prepare solutions each containing the biologically active substance at a concentration of 20 μg/ml and 5% glycerin. Ink cartridges were washed with 70% ethanol, to which the respective solutions prepared above were filled.
Then, on a base of a polyolefin sheet (NOVIX-II® manufactured by Asahi Techno Glass), sterilized in advance with a sterilizing lamp, the biologically active substances were discharged by using an ink jet printer (Ink jet printer F930, Canon). […]
The cells after the culture were treated with 10% formalin for 15 minutes and then with methanol for 15 minutes, and finally with a 1000-fold dilution of fluorescent dye (TOTO-3 manufactured by Molecular Probe) for 30 minutes for fluorescent staining of DNA. […] Also the cells were subjected to freeze-fracture and the creatinkinase (KP) and alkaliphosphatase (ALP) activities were measured.

Substance: BMP-2: bone morphogenetic protein used as biologically active substance
- bone differentiation (optical microscope) [1]: bone differentiation
- ALP staining (index for bone differentiation by BMP-2) [2]: portions stained with ALP were confirmed
- bone differentiation (ALP relative activity) [3]: accelerated
- differentiation into bone cells (microscope observation) [4]: accelerated depending on the concentrations
